Apparent affinities of Ab-14 variants for a coronavirus HR2 peptide

The measurements come from Li et al. 2023 (doi:10.1038/s41467-023-39022-2) through the FLAb antibody collection.

All variants were tested on one target, the spike HR2 peptide PDVDLGDISGINAS (SARS-CoV-2).

Each scFv is VH, a (GGGGS)3 linker, VL, as in the parent Ab-14, and differs from it in the CDRs of the light chain only.
VH: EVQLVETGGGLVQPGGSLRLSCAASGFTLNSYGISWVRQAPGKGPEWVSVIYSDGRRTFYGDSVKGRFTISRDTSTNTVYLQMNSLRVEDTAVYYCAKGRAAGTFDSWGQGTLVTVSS
VL: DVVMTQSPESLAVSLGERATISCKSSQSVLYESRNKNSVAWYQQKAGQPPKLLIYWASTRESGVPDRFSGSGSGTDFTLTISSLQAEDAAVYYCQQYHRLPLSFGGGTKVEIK

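Designed CDR sequences, proposed from the first random library and measured here. Group labels follow the data file (Ctrl: baseline library sampled from a position-specific scoring matrix, with some repeated check sequences; Rand: our label for a block that the file lists under HC and that is probably the random mutants of the ten best first-round binders; En: ensemble of fine-tuned language models; GP: Gaussian process model; HC: hill climbing; Gen: genetic algorithm; Gibbs: Gibbs sampling; a sequence that several methods proposed may carry one label only). The scFvs were displayed on barcoded MATa yeast, the peptide on MATalpha yeast. Mating (16 h, 30 °C) was followed by selection of diploids and sequencing of their barcodes. A regression on co-assayed BCL2-family reference pairs converts the normalised counts of each replicate to an apparent Kd. The assay was run in six technical replicates.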

The parent's light chain CDRs are KSSQSVLYESRNKNSVA, WASTRES, QQYHRLPLS; each variant's own CDRs replace them letter for letter. This list holds designs with more than six substitutions. The read-out is the apparent dissociation constant on a log10 scale (nM): the lower, the stronger. Replicates are averaged; those with no signal do not enter the mean. An entry "no signal" has no value in the source: the pair was not observed among the diploids in any replicate. This suggests poor binding but is not conclusive. Three control strains display no target. For all light chain designs, 4% of the pairings with them gave a signal, with a median of 2.64 and one signal in twenty below 1.59, so weak values seen in few replicates may be background. For each scFv, signals with the empty controls are counted beside the result. In the paper, a design with two or fewer of six values counts as a poor binder. The range of this assay differs from that of the first round, and the authors advise against merging the two.

| CDR-L1 | CDR-L2 | CDR-L3 | group | mean log10 Kd (nM) | detected | control signals |
|---|---|---|---|---|---|---|
| KISMMYRYESTASNNIA | EMTTRAE | QSYHRLPLS | En_HC | 0.63 | 6 of 6 | 0 of 18 |
| MVVGPDEGEEHNWQSVA | SAELRAM | QQYFRLPLM | En_Gibbs | 1.28 | 6 of 6 | 0 of 18 |
| KVSWSYLYESDNKQSVA | MVNTRES | QQYHRLPLS | Ctrl | 1.96 | 6 of 6 | 0 of 18 |
| NIYQAMHTLSQMKDNVA | DVNERGQ | QQYYRLPLS | En_Gen | 0.38 | 6 of 6 | 1 of 18 |
| RIQQQMAGFEKEAANIA | STAVRLW | QQYARLPFI | En_Gibbs | 0.25 | 6 of 6 | 0 of 18 |
| KFQQESNNMNDNQNSVA | EESMVQY | QHYWRLPLT | En_Gibbs | 1.36 | 2 of 6 | 1 of 18 |
| QLGDEQVSGTLMAQNIA | HSDFRAD | QQYFRLPLL | En_Gibbs | 0.25 | 6 of 6 | 0 of 18 |
| KITMTMRFEQKNKNNIA | EVSTRSK | QQYVRLPLA | En_Gen | 0.29 | 6 of 6 | 0 of 18 |
| QLSMITGHYSMRKNNVA | EMETREN | QQYDRLPLS | En_Gen | 0.81 | 6 of 6 | 0 of 18 |
| KLSQSVLVGDRNKSSVA | QASTREM | QQYHRLPLS | GP_Gibbs | 0.09 | 6 of 6 | 0 of 18 |
| QLTMITGHVSMIKNNVA | EMETREN | QQYDRLPLS | En_Gen | 1.30 | 6 of 6 | 0 of 18 |
| SIQNLGMVNSVWKNSIA | DVTIVED | QQYYRLPLL | En_Gibbs | 0.75 | 6 of 6 | 1 of 18 |
| NFSMALEDMGVKTKSIA | ENQLTEY | QQYAKLPLM | En_Gibbs | 1.58 | 6 of 6 | 2 of 18 |
| TISQSTNMTSRGKNSVA | QAEMRES | QQYDRLPLS | En_HC | 1.63 | 5 of 6 | 0 of 18 |
| NMKVGLNFEDIQHQAIA | EVEERES | QQYARLPLT | En_Gibbs | 1.55 | 6 of 6 | 1 of 18 |
| KITQTMRFEQKNSNNIA | EVTTRSK | QQYVRLPLA | En_Gen | -0.18 | 6 of 6 | 0 of 18 |
| QISLNGWDGEPYEYAVA | EGTIKDA | QQYSRLPLS | En_Gibbs | 1.47 | 6 of 6 | 0 of 18 |
| TFPQEVMYESHFKNNVA | QTSTREP | QQYDHLPLS | En_HC | 0.73 | 6 of 6 | 0 of 18 |
| KYSQNVLIMGKNKNNVA | EMTTREE | QQYDRLPLS | En_HC | 0.39 | 6 of 6 | 2 of 18 |
| DLTGMFNLAGQQQHSIA | NGGIKIE | QQYNRLPLA | En_Gibbs | 0.97 | 6 of 6 | 0 of 18 |
| QLQLQPQTGLNAQHSIA | DVSAKDM | QQYARLPLH | En_Gibbs | 0.80 | 6 of 6 | 4 of 18 |
| KFEQLVLPEDRNKNSVA | NASTRED | QQYHRLPLS | GP_Gibbs | -0.11 | 6 of 6 | 0 of 18 |
| MISDLTMYGSRNKNSVA | DLSHRGS | QQYHRLPLS | En_HC | 0.66 | 6 of 6 | 0 of 18 |
| KLSEIAHFESRKKNSVA | ENSTREQ | QQYDHLPLS | En_HC | 2.55 | 3 of 6 | 1 of 18 |
| MISQLMNMGQFAINSVA | QAEIRNN | QQYDRLPLA | En_Gen | -0.10 | 6 of 6 | 2 of 18 |
| QMRLLYENSGHRMNSIA | DETMKPD | QQYVRLPLH | En_Gibbs | 0.92 | 6 of 6 | 0 of 18 |
| KLSMITGHMSMSKNNVA | EMETREN | QQYERLPLS | En_Gen | 0.64 | 6 of 6 | 1 of 18 |
| KLSQSVEQEERNKNSVA | HASQREV | QQYHRLCLS | GP_Gibbs | no signal | 0 of 6 | 0 of 18 |
| KCEQSWGYESRVKNNVA | NASTRES | QQYHRLPLS | GP_Gibbs | 0.12 | 6 of 6 | 3 of 18 |
| SLVQEKSVGDKNMGNIA | AANQLSV | QQYNRLPLS | En_Gibbs | -0.01 | 6 of 6 | 0 of 18 |
| YMSGQISGDWNQQEAIA | EVTYKEH | QQYYQLPLS | En_Gibbs | no signal | 0 of 6 | 0 of 18 |
| NFSQMVLTGSTLRNSVA | HASTREE | QQYHRLPLI | En_HC | 0.62 | 6 of 6 | 1 of 18 |
| IIDQIMYHGNKSANSIA | QASQRLN | QQYHHLPLI | En_Gen | 1.31 | 6 of 6 | 1 of 18 |
| SLYEAMQTGKLRTSAIA | DVNQQMR | QQYNRLPLM | En_Gibbs | 0.00 | 6 of 6 | 1 of 18 |
| KLSCSELYDEPNKNSVA | NASTRDM | QQYHRLPLS | GP_Gibbs | 1.59 | 5 of 6 | 1 of 18 |
| KIGMTLNTLMRKKNNVA | DLVERAN | QQYFRLPLS | En_Gen | 0.40 | 6 of 6 | 0 of 18 |
| KLSWVQGHMSVSKNNVA | EMETRVN | QQYDRLPLS | En_Gen | 0.13 | 6 of 6 | 0 of 18 |
| MLAQPQKELGYAKDAVA | DGSIRLG | QQYHRLPLV | En_Gibbs | 0.17 | 6 of 6 | 0 of 18 |
| HLLQTVMYGQTRKNSVA | HAVTREN | QQYHRLPLM | En_HC | 1.52 | 5 of 6 | 0 of 18 |
| QLGAVQDMTSKNKNSVA | EMSTREN | QQYHRLPLS | En_HC | -0.07 | 6 of 6 | 4 of 18 |
| SMSNAQFNPDNWKNSIA | DAEHVAY | QQYSRLPLT | En_Gibbs | -0.20 | 6 of 6 | 0 of 18 |
| KLSATYRFESQNKNSIA | EMTTREE | QCYHRLPLS | En_HC | 1.58 | 5 of 6 | 0 of 18 |
| KIGMGTNGEKFQSNSVA | QTSTREE | QQYHRLPLS | En_HC | 0.43 | 6 of 6 | 0 of 18 |
| KSQISEGYEQRNKNSVA | EASTRCD | QQYHRLPLS | GP_Gibbs | -0.48 | 6 of 6 | 1 of 18 |
| TLGQVTMVESYNKDSVA | QASTRLE | QDYHRLPLS | En_HC | 1.03 | 6 of 6 | 0 of 18 |
| QTTAFYEHGYDQQQAMA | NATMRDQ | QQYERLPLS | En_Gibbs | 1.19 | 6 of 6 | 2 of 18 |
| TIGAQLMYGMRNRSNVA | EVSERLN | QQYDRLPLF | En_Gen | 2.10 | 5 of 6 | 2 of 18 |
| KLNSDSVLQWNINNSVA | EHSEVVQ | QQYVHLPLM | En_Gibbs | 1.27 | 1 of 6 | 0 of 18 |
| KQQFSSGMEQRNKNSVA | SASTRCS | QQYHRLPLS | GP_Gibbs | 0.92 | 6 of 6 | 2 of 18 |
| KLSATYRYESQNKNSIA | EMTTRMS | QCYHRLPLS | En_HC | 1.94 | 1 of 6 | 0 of 18 |
| KLSMYTGHMSVSKNNVA | EMETRVN | QQYDRLPLS | En_Gen | 1.19 | 6 of 6 | 2 of 18 |
| SLEPFEYQIMKDLNNIA | NTQVRAN | QQYMRLPFM | En_Gibbs | 0.19 | 6 of 6 | 1 of 18 |
| KLSQSVLYQMGMKNSVA | QAVTRMS | QQYHRLPLS | GP_Gibbs | 0.49 | 6 of 6 | 0 of 18 |
| KLRQSTLFESRNKNKVT | GASTRES | QQYHRLPLS | Rand | 2.35 | 1 of 6 | 1 of 18 |
| KLEFSELEESRNPNSVA | SASTRES | QDYHRLPLS | GP_Gibbs | 0.60 | 6 of 6 | 1 of 18 |

Again, the first 2 entries without any signal:

| CDR-L1 | CDR-L2 | CDR-L3 | group | mean log10 Kd (nM) | detected | control signals |
|---|---|---|---|---|---|---|
| KLSQSVEQEERNKNSVA | HASQREV | QQYHRLCLS | GP_Gibbs | no signal | 0 of 6 | 0 of 18 |
| YMSGQISGDWNQQEAIA | EVTYKEH | QQYYQLPLS | En_Gibbs | no signal | 0 of 6 | 0 of 18 |